Assays:
I530S DIAPH1-NT (human) = assay: SEC-MALS
WT DIAPH1-NT (human) = assay: SEC-MALS

stoichiometry N (I530S DIAPH1-NT (human)) | stoichiometry N (WT DIAPH1-NT (human)) | Substance
2 | – | I530S DIAPH1-NT (domain or fragment)
– | 2 | WT DIAPH1-NT (domain or fragment)
